# pKi: −log10 of the molar value. Where two headings read alike, the source gives them in different places.
# By UniProt entry, the sequences of proteins in these tests, tags left out. Residues count along the entry.
# UniProt Q9Y243, whole entry: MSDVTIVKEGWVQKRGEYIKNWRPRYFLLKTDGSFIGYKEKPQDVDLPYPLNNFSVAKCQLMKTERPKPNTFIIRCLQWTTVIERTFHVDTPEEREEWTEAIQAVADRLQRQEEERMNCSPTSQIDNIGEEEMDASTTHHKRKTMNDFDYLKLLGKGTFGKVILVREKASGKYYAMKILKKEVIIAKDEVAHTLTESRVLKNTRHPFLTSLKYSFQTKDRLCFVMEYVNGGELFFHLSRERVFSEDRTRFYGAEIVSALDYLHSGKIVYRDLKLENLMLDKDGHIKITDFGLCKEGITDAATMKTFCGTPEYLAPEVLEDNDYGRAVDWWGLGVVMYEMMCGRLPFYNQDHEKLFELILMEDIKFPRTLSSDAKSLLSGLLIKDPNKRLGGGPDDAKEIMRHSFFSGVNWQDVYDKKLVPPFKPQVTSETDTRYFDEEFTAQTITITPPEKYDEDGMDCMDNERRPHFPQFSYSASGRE
# UniProt P23443, 1-421 T412E limits assumed: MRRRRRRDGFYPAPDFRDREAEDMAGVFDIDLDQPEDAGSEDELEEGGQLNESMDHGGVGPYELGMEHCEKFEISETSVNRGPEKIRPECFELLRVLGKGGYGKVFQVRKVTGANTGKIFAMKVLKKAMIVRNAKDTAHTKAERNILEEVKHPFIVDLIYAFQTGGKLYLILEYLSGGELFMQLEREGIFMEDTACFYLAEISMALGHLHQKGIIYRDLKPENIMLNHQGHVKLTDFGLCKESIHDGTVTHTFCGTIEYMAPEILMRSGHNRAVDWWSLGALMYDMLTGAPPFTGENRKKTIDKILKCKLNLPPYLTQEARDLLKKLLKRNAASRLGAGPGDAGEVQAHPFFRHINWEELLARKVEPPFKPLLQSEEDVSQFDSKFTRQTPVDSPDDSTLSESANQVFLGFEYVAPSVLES
# What was measured:
# Akt3 human enzyme = Akt3 human enzyme (Homo sapiens, UniProt Q9Y243); assay: Akt3 inhibition assay (IMAP FP); assay type: biochemical;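 also: kinase reaction run 60 min at room temperature after 30 µM ATP start, phosphorylated substrate captured on IMAP beads and read as fluorescence polarization (mP)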
# p70S6K human enzyme = p70S6K human enzyme (Homo sapiens, UniProt P23443, T412E); assay: p70S6K inhibition assay (IMAP FP); assay type: biochemical;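 also: kinase reaction run at room temperature, phosphorylated substrate captured on IMAP beads and read as fluorescence polarization in mP, IC50 then converted to Ki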
compound,measurement,setting,value
"CCc1ccc(CN2CCC[C@@H](Nc3ccc4[nH]ncc4c3)C2)cc1 [Compound 1.136, (R)-N-(1-(4-ethylbenzyl)piperidin-3-yl)-1H-indazol-5-amine]",pKi,"Akt3 human enzyme; read-out: Akt3 Ki, Avg, 30 μM ATP, Ki=IC50/(1+([ATP Challenge]/EC50 ATP))",6.35
same,pKi,"Akt3 human enzyme; read-out: Akt3 Ki, average Ki",6.35
same,pKi,"p70S6K human enzyme; read-out: p70S6K Ki, Avg, 30 μM ATP, Ki=IC50/(1+([ATP Challenge]/EC50 ATP))",6.23
same,pKi,"p70S6K human enzyme; read-out: p70S6K Ki, average Ki",6.23

# — patent US20090325959A1 (priority 2008, published 2009)
